US5462952A, “Fenamate 1,3,4-thiadiazoles and 1,3,4-oxadiazoles as antiinflammatory agents” (Warner-Lambert Company, priority 1993, dated 1995)

Target: T1, 5-Lipoxygenase (Rattus norvegicus, UniProt P12527)
T1 construct: host or cells: RBL-1 (rat basophilic leukemia)
T1 sequence (P12527 1-673): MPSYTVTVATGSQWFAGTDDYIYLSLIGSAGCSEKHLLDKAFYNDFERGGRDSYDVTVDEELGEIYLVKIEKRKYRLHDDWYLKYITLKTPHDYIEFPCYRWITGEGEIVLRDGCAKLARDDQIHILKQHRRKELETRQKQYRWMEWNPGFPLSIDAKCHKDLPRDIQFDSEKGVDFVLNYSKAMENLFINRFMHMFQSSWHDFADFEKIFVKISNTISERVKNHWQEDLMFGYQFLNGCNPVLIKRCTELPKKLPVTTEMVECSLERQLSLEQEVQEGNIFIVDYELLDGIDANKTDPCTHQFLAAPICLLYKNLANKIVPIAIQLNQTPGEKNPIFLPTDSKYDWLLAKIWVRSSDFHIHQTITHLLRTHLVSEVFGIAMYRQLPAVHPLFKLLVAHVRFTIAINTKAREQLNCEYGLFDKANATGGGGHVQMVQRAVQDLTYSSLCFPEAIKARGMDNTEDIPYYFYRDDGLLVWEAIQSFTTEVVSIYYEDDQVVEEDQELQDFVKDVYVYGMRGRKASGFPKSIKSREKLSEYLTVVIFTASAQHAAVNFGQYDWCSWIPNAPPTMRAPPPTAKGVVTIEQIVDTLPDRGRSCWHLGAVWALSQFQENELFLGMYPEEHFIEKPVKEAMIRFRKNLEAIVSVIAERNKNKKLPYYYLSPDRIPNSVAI
Test: ARBL whole cell 5-lipoxygenase assay (LTB4 formation in RBL-1 cells, A23187-stimulated)
Assay type: cell-based
Details: Table 2
Procedure: The rat basophilic leukemia cell line (RBL-1) was obtained from the American Type Culture Collection (Rockville, Md.).
Radioimmunoassay (RIA) kits of LTB4 and PGF2α were obtained from Amersham (Arlington Heights, Ill.) and Seragen (Boston, Mass.), respectively.
RBL-1 cells are grown in suspension culture in Eagle's minimum essential medium supplemented with 12% fetal bovine serum at 37° C. in an incubator supplied with air-5% carbon dioxide. Cells are harvested by centrifugation. They are washed with cold phosphate buffered saline pH 7.4 (PBS; NaCl, 7.1 g; Na2 HPO4, 1.15 g; KH2 PO4, 0.2 g; and KCl, 0.2 g/l). Cells are finally suspended in PBS containing 1.0 mM calcium at a density of 2×10^6 cells/ml. Cells are incubated with and without test agent (in DMSO) (1% DMSO is without effect on arachidonic acid metabolism) for ten minutes at room temperature. Calcium ionophore A23187 (5 μM) is added and cells are incubated for seven minutes at 37° C. The reaction is stopped by chilling the tubes on ice for ten minutes. Cells are separated by centrifugation and the supernatant is stored at -20°. Aliquots (100 μl) are analyzed for LTB4 and PGF2α using radioimmunoassay kits as provided by the supplier. […]

IC50: 2990 nM
SMILES: N#CNc1nnc(-c2ccccc2Nc2cccc(C(F)(F)F)c2)o1 [Example 26, 5-[2-[[3-(Trifluoromethyl)phenyl]amino]phenyl]-1,3,4-oxadiazol-2-yl-cyanamide]
